In ChEMBL document CHEMBL3734654, “Mutational mapping of the transmembrane binding site of the G-protein coupled receptor TGR5 and binding mode prediction of TGR5 agonists” (Eur J Med Chem, 2015):

Tested on: T1, G-protein coupled bile acid receptor 1 (Homo sapiens), Q8TDU6 [E169A]
T1 sequence (whole entry): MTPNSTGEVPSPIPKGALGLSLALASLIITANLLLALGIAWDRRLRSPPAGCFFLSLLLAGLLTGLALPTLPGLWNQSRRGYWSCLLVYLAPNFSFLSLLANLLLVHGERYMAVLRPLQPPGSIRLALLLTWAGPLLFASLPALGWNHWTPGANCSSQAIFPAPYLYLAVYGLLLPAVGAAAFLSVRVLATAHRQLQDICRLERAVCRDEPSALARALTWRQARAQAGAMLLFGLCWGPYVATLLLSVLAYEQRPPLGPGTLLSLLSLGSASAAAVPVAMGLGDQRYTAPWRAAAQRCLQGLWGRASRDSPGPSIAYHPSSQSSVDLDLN
Assay: Agonist activity at human TGR5 E169A mutant expressed in HEK293 cells assessed as rise in intracellular cAMP level at 10 uM incubated for 16 hrs by luciferase reporter assay relative to wild type
Format: functional, cell-based

Activity: 119%
SMILES: C[C@H](CCC(=O)NCCS(=O)(=O)O)[C@H]1CC[C@H]2[C@@H]3CC[C@@H]4C[C@H](O)CC[C@]4(C)[C@H]3C[C@H](O)[C@]12C
